# Patent US8476025B2, “ATM-dependent phosphorylation of Sp1 is involved in the cellular response to DNA damage and enhances cellular survival after DNA damage” (Philadelphia Health and Education Corporation, priority 2007, dated 2013)
# Test system: Sp1 phosphorylation at Ser101
# Settings: for Detection of DNA damage by phospho-serine 101 Sp1 antibody compared with γH2AX: U2OS immunoblot; for Sp1 phosphorylation at Ser101: varying concentrations, harvested 24 hours after treatment
SMILES,Detection of DNA damage by phospho-serine 101 Sp1 antibody compared with γH2AX,Sp1 phosphorylation at Ser101 (U2OS),"H2AX phosphorylation (U2OS, 24 hours after exposure)"
COc1cccc2c1C(=O)c1c(O)c3c(c(O)c1C2=O)C[C@@](O)(C(=O)CO)C[C@@H]3O[C@H]1C[C@H](N)[C@H](O)[C@H](C)O1 [doxorubicin],lower doses of damaging agent than γH2AX,–,–
COc1cc([C@@H]2c3cc4c(cc3[C@@H](O[C@@H]3O[C@@H]5CO[C@@H](C)O[C@H]5[C@H](O)[C@H]3O)[C@H]3COC(=O)[C@H]23)OCO4)cc(OC)c1O [etoposide],lower doses of damaging agent than γH2AX,–,–
NC(=O)NO [hydroxyurea],lower doses of damaging agent than γH2AX,observed,–
CN(Cc1cnc2nc(N)nc(N)c2n1)c1ccc(C(=O)N[C@@H](CCC(=O)O)C(=O)O)cc1 [methotrexate],lower doses of damaging agent than γH2AX,observed,no visualization
